Molecular target: Adenosine receptor A1 (Rattus norvegicus, UniProt P25099)

The chains behind the UniProt entries cited, without tags or fusion partners.
UniProt P25099, whole entry: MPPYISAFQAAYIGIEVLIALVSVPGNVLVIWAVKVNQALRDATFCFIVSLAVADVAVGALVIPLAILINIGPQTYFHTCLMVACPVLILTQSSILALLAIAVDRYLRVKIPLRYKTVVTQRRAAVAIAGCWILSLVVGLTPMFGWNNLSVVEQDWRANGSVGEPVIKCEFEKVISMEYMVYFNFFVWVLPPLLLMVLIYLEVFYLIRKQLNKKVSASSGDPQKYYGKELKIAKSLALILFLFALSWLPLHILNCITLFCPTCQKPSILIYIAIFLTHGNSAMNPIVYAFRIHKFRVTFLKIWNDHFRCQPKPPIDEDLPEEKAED

CCCn1c(=O)c2nc(/C=C/c3ccccc3)[nH]c2n(CCC)c1=O
Ki: 0.035 µM

— ChEMBL document CHEMBL1126087, “(E)-1,3-dialkyl-7-methyl-8-(3,4,5-trimethoxystyryl)xanthines: potent and selective adenosine A2 antagonists” (J Med Chem, 1992)
